Target: T1, COX-2 (Mus musculus, UniProt Q05769)
T1 construct: host or cells: RAW 264.7 cells, pre-treated with aspirin and induced with interferon and LPS
T1 sequence (Q05769 18-604): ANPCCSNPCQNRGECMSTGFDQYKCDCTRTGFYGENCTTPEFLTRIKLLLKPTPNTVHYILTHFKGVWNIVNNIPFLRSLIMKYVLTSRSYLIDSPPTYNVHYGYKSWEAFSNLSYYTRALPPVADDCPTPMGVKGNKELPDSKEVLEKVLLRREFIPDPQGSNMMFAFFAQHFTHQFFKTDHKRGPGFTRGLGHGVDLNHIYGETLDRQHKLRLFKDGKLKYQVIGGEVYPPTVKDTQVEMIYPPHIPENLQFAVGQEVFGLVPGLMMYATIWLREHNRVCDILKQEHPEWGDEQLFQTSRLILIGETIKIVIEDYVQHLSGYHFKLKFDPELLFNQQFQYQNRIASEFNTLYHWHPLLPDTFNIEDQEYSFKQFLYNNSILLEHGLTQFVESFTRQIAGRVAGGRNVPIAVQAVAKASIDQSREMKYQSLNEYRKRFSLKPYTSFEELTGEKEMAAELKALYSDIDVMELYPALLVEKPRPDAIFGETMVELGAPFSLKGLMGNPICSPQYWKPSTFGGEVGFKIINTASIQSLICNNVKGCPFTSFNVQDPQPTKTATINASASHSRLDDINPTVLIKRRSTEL
Experiment: Assay for the COX-2 inhibitory activity using RAW 264.7 cell line (PGE2, EIA)
Format: cell-based
Details: RAW264.7, 10 nM test compound, RAW 264.7 cells, aspirin pre-treated, interferon + LPS 18 hours, read-out: Cyclooxygenase (COX) Inhibition (%) COX-2 (10 nM)
Method: Each well was treated with 250 μM of aspirin and incubated at 37° C. for 2 hours. After the culture media were replaced with new culture media, the new culture media were treated with a test compound (10 nM) and incubated for 30 minutes. Then, each well was treated with interferon ? (100 units/ml) and lipopolysaccharide (LPS, 100 ng/ml) and incubated for 18 hours. The culture media were transferred to other test tubes. The concentration of PGE2 was quantified by means of the EIA kit (Cayman Chemicals).
The percentages of the COX inhibition were calculated according to the following equation: [formula]

Question: Which inhibition at 0.01 µM does the source give for `Cc1onc(-c2ccccc2)c1-c1ccc(S(N)(=O)=O)cc1` [Reference (Valdecoxib), Valdecoxib, reference compound] here?
Answer: The inhibition at 0.01 µM was 60.2%.
